Results from ChEMBL document CHEMBL4673256, “Pyrazol-1-yl-propanamides as SARD and Pan-Antagonists for the Treatment of Enzalutamide-Resistant Prostate Cancer” (J Med Chem, 2020).
pKi: −log10 of the molar value.

Molecular target: T1, Androgen receptor (Rattus norvegicus, UniProt P15207)
T1 sequence (P15207 whole entry): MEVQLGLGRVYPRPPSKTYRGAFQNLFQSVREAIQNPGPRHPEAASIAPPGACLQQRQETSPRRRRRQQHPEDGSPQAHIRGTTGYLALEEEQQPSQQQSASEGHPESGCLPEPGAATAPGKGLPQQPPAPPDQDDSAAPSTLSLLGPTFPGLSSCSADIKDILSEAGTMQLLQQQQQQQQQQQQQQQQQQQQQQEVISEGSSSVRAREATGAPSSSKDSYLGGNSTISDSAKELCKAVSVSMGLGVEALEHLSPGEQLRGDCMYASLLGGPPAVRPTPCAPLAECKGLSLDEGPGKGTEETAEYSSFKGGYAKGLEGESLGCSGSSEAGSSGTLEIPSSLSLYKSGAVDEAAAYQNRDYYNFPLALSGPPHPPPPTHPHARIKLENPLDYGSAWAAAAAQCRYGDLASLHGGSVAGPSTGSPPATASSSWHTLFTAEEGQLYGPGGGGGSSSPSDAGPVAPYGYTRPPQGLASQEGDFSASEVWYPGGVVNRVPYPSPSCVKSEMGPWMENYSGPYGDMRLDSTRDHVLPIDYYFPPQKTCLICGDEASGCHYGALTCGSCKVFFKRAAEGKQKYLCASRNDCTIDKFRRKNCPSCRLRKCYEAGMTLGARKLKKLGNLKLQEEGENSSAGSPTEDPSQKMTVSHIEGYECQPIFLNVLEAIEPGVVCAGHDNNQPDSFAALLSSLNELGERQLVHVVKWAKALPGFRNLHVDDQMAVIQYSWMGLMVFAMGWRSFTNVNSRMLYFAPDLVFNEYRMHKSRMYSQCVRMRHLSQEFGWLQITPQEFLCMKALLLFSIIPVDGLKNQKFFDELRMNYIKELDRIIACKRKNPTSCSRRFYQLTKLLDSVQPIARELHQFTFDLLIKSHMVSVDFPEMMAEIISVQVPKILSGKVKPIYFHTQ

**Q.** How did the pKi turn out when CC(Cn1cc(F)cn1)C(=O)Nc1ccc(C#N)c(C(F)(F)F)c1 (stereo unspecified) was run?
**A.** < 5.00
